# Patent publication US10265321B2, “Uses of salt-inducible kinase (SIK) inhibitors” (Dana-Farber Cancer Institute, Inc., priority 2014, dated 2019)
# By UniProt entry, the sequences of proteins in these tests, tags left out.
# UniProt Q9H0K1, whole entry: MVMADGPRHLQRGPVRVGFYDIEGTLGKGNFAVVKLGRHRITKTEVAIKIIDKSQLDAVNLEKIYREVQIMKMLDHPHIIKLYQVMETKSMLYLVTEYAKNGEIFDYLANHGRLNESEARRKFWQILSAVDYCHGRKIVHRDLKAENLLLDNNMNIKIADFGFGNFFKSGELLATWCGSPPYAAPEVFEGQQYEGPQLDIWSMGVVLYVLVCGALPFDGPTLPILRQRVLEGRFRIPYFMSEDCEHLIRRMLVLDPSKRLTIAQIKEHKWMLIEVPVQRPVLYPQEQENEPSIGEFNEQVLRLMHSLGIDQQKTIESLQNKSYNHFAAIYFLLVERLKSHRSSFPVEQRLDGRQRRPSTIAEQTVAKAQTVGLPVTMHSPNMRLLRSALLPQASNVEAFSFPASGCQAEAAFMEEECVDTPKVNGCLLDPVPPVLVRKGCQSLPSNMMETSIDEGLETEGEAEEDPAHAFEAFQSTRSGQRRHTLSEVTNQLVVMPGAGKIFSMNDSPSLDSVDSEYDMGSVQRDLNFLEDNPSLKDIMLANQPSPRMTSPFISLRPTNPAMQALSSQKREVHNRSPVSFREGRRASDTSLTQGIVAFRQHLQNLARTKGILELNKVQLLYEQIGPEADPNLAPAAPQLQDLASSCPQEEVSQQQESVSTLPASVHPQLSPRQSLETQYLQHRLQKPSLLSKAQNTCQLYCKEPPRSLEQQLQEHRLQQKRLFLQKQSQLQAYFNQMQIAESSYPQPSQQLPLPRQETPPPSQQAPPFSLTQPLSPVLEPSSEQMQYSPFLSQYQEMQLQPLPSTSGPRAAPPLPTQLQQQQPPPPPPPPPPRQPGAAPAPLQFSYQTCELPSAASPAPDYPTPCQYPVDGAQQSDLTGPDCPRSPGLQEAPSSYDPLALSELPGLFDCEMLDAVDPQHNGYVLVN
# UniProt Q9Y2K2, whole entry: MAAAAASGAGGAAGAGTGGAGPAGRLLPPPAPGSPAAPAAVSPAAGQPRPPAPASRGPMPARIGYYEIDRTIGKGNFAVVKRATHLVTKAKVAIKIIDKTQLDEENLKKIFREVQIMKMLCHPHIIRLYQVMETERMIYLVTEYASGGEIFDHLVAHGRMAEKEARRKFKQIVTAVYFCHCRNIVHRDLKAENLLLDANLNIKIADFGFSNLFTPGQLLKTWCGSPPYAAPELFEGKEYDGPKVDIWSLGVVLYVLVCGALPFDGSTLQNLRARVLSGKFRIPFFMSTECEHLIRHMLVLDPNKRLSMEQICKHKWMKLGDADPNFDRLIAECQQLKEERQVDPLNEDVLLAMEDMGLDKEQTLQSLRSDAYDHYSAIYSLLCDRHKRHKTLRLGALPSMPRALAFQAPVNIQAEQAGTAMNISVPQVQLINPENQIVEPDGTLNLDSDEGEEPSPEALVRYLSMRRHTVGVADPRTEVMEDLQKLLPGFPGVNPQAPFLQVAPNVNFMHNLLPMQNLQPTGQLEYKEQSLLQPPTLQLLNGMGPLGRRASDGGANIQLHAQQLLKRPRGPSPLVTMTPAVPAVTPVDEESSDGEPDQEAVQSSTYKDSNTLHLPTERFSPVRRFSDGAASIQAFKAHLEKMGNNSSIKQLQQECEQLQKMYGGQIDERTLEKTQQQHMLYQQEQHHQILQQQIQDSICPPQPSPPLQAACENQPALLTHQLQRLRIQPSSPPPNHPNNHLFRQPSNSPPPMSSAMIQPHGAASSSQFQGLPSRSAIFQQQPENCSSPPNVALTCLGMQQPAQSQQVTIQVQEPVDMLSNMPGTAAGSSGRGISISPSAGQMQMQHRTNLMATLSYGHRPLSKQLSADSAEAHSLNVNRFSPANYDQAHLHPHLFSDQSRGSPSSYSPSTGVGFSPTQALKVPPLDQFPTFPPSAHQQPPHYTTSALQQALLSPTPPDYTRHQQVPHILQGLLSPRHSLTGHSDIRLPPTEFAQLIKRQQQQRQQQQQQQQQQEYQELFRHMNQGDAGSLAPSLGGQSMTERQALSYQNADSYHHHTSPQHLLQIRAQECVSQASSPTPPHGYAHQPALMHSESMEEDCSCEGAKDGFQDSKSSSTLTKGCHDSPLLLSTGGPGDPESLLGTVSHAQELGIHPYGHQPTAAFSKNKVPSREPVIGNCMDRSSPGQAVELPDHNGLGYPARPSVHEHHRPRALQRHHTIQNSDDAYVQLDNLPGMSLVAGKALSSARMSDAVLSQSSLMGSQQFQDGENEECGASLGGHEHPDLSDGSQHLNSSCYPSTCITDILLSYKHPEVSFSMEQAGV
# Key:
# SIK2 = SIK2 (Homo sapiens, UniProt Q9H0K1); test: Protein kinase assay ([γ-32P] ATP, phosphocellulose paper) against SIK2; conditions: read-out: Enzyme Inhibition IC50 SIK2
# SIK3 = SIK3 (Homo sapiens, UniProt Q9Y2K2); test: Protein kinase assay ([γ-32P] ATP, phosphocellulose paper) against SIK3; conditions: read-out: Enzyme Inhibition IC50 SIK3
smiles,measurement,setting,value
Cc1cccc(C)c1OC(=O)N1CCCCOCc2cc(ccc2OCCN2CCOCC2)Nc2nccc1n2,IC50,SIK2,18.9 nM
same,IC50,SIK3,176 nM
